Earlier results on one substance are cited in patent US20100247688A1 (priority 2007, published 2010).

For the data set the following is noted: in vivo; cited from earlier work.

With pirenzepine [AC-91], the CSF concentration is given as 4 ng/mL and the “fraction of plasma concentration in CSF” value is listed as 9.5%.
